Measured values: PubChem BioAssay AID652235 (Sanford-Burnham Center for Chemical Genomics, 2013)
The entries are a selection whose mix differs from that of the whole data set. Active and inactive are the calls of the source.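 Rule for the calls: active = inhibition of at least 50% in the primary cell screen; inactive = the rest.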

Biological target: Matrix metalloproteinase-14 (Homo sapiens) (UniProt P50281)
Assay: retesting blockers of MT1-MMP activation – single concentration, fluorescence, HT1080 RFP-PRO-GFP cells, confirmation (AID 652235)
Conditions: GFP and RFP fluorescence ratio, overnight, at 20 µM, active compounds read high

SMILES: Cc1ccc(NCCc2c([N+](=O)[O-])cc([N+](=O)[O-])cc2[N+](=O)[O-])cc1
- inhibition: inactive: 6.13%
